{"source": "patent US20200375958A1", "about": "“MEMBRANE ACTIVE MOLECULES” (priority 2017, published 2020)", "system": "mouse", "details": "intravenous", "experimental": "Butyric acid was dissolved in water to form an 8 M solution. 0.5 mL of the 8 M solution of butyric acid was injected subcutaneously (at the back of the neck) into the mouse.\n3-hydroxybutyric acid was dissolved in water to form 1 M, 1.5 M, and 2 M solutions. 0.2 mL of a 1.5 M solution of 3-hydroxybutyric acid was injected into a tail vein of a CD-1 mouse. […] This was repeated for at least 2 more times on subsequent days.\nEthylmalonic acid was dissolved in water to form 2 M, 3 M, and 4 M solutions. 0.2 mL of a 3 M solution of ethylmalonic acid was injected into a tail vein of a mouse. […] This was repeated for at least 2 more times on subsequent days.\nEthylmalonic acid was dissolved in water to form a 4 M solution. 0.5 mL of the 4 M solution of ethylmalonic acid was injected subcutaneously into the mouse.", "note": "Like-named read-outs stand apart in the source and are kept apart here.", "data": [{"substance": "ethyl isovaleric acid", "values": [{"measurement": "Lethality to the animals", "setting": "250 mM solution in intralipid", "result": "lethal"}, {"measurement": "Lethality to the animals", "setting": "1M solution in intralipid", "result": "lethal"}]}]}
